Where two headings read alike, the source gives them in different places.
Key:
[1] = biological target: recombinant human DHODH (Homo sapiens, UniProt Q02127); assay: DHODH enzymatic assay (kinetic, DCIP reduction); details: for IC50: read-out: DHODH inhibition (enzyme assay), IC50, 6 nM recombinant human DHODH, average of three independent repeats
[2] = test system: p53, hdm2 and p21 in ARN8 cells; assay: Western blotting of p53 and p53 targets in ARN8 cells; assay type: cell-based, human; details: 5 μM; for Treatment time at which p53 protein levels increased: blotted at 2, 4, 6 or 8 h; for Effect of OA and uridine on p53 protein and downstream signaling (hdm2, p21): 24 h, 100 μM uridine or 1 mM OA
[3] = test system: ARN8 cells; assay: SRB assay in ARN8 cells with nucleotide supplementation; details: 72 h, 100 μM uridine, 1 mM DHO or 1 mM OA
[4] = test system: HCT116 p53 WT and p53 KO cells; assay: IncuCyte cell confluence measurements; assay type: cell-based, human; details: HCT116 p53 WT or KO, 5 μM, confluence over 72 h
[5] = test system: p53 transcriptional activity in ARN8 cells; assay: p53 transcriptional activation (CPRG) cell reporter assay; assay type: cell-based, human; details: 18 h, 100 μM uridine, 1 mM DHO or 1 mM OA
[6] = test system: U2OS or ARN8 cells; assay: Uridine uptake assay ([3H]uridine, scintillation counting); details: 5 μM
[7] = test system: SKNSH p53 WT and ddp53 cells; assay: SRB assay in SKNSH cells; assay type: cell-based, human; details: SKNSH WT p53 versus ddp53, dose titration, 72 h

The chains behind the UniProt entries cited, without tags or fusion partners.
UniProt Q02127, whole entry: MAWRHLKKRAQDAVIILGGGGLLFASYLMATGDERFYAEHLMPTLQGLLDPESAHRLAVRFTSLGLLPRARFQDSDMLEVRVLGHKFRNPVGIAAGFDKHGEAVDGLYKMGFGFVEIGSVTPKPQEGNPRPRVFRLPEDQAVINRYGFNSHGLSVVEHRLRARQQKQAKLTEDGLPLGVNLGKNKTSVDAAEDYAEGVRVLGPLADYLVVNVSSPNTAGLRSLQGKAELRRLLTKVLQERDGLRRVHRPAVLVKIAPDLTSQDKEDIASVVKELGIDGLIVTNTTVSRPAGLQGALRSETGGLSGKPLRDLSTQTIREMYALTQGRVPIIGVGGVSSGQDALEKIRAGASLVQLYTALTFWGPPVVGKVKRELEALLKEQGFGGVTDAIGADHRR

IC50 [1] | IC50 ([1]; listed as tenovin 39OH) | Inhibition of DHODH enzyme activity (in words) ([1]; biochemical assay) | SMILES | Treatment time at which p53 protein levels increased [2] | Effect of OA and uridine on p53 protein and downstream signaling (hdm2, p21) [2] | Effect of supplementation on tumor cell growth inhibition (SRB) [3] | Effect on cell growth in p53 KO versus p53 WT cells [4] | Effect of supplementation on induction of p53 transcriptional activity [5] | Inhibition of uridine uptake after 15 min [6] | Effect on cell growth when ddp53 is expressed [7]
5.8 µM | 5.8 µM | – | CC(C)(C)c1ccc(C(=O)NC(=S)Nc2ccc(C(=O)NCCCCO)cc2)cc1 | 2 h | largely unaffected | unaffected by supplementation | effects on cell growth ablated in the p53 KO cells | unaffected | – | –
> 20 µM | – | incapable of inhibiting DHODH | CN(C)CCCCNC(=O)c1ccc(NC(=S)NC(=O)c2ccc(C(C)(C)C)cc2)cc1 | 2 h | largely unaffected | unaffected by supplementation | effects on cell growth ablated in the p53 KO cells | unaffected | able to inhibit uridine uptake into cells | –
> 20 µM | – | – | CN(C)CCCCNC(=O)c1ccc(NC(=O)NC(=O)c2ccc(C(C)(C)C)cc2)cc1 | – | unable to bring up levels of p53 or its downstream targets | – | – | unable to activate p53 | able to inhibit uridine uptake into cells | not markedly changed
> 20 µM | – | – | CC(C)(C)c1ccc(C(=O)NC(=O)Nc2ccc(C(=O)NCCCCO)cc2)cc1 | – | unable to bring up levels of p53 or its downstream targets | – | – | unable to activate p53 | unable to inhibit DHODH or uridine uptake | –
